# Biological target: GST-LC3B (human) (UniProt Q9GZQ8)
# Experiment: pull-down
substance,measurement,value
"myc-TNIP1-S122E/S123E, 35S-labelled (from UniProt Q15025-1 1-636) (natural protein)",fold increase of binding against wild-type TNIP1,3.4 fold
